Results reported in patent US5514694A, “Peptidyl ketoamides” (Georgia Tech Research Corp, priority 1993, dated 1996).

Chains of the proteins cited; added tags and fusions are not shown. Residues count along the entry.
UniProt P08311, 21-255 limits assumed: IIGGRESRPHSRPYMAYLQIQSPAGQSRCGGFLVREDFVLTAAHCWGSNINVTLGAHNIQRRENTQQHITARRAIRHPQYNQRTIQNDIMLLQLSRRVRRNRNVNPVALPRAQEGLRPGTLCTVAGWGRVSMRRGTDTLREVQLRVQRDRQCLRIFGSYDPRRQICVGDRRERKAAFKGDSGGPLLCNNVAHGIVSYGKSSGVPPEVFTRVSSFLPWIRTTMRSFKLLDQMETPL
UniProt P08246, 30-267 limits assumed: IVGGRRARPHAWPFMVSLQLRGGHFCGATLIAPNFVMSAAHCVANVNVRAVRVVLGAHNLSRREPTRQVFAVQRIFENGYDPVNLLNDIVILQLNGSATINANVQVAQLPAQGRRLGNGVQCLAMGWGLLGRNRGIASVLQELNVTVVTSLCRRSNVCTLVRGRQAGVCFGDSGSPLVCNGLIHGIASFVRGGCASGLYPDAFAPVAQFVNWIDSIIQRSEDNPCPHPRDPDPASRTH

Key:
[1] = molecular target: Human leukocyte cathepsin G (Homo sapiens, UniProt P08311); assay: Cathepsin G inhibition, Suc-Val-Pro-Phe-NA hydrolysis; conditions: read-out: IC50 Cat G; Table 4, Z-Leu--AA--CONH-R
[2] = molecular target: human leukocyte elastase (HLE) (Homo sapiens, UniProt P08246); assay: HLE inhibition, MeO-Suc-Ala-Ala-Pro-Val-NA hydrolysis; assay type: biochemical; conditions: read-out: IC50 HLE; Table 4, Z-Leu--AA--CONH-R

With CCCCCCCCCCNC(=O)C(=O)[C@H](CC)NC(=O)[C@H](CC(C)C)NC(=O)OCc1ccccc1 the IC50 [1] was 162 µM and the IC50 [2] was 47 µM.
